{
  "source": "paper PMC6273621",
  "about": "“Synthesis and the Biological Activity of Phosphonylated 1,2,3-Triazolenaphthalimide Conjugates” (Molecules, 2016)",
  "key": {"TK− VZV strain": {"system": "TK− VZV strain", "conditions": "read-out: Antiviral Activity EC50, TK− VZV Strain; HEL cell cultures; concentration reducing virus plaque formation by 50%"}, "TK+ VZV strain": {"system": "TK+ VZV strain", "conditions": "read-out: Antiviral Activity EC50, TK+ VZV Strain; HEL cell cultures; concentration reducing virus plaque formation by 50%"}},
  "data": [
    {"smiles": "CN(C)CCN1C(=O)c2cccc3cc(N)cc(c23)C1=O", "note": "[Amonafide, reference compound]", "values": [
      {"measurement": "EC50", "setting": "TK− VZV strain", "result": 6.48, "unit": "µM"},
      {"measurement": "EC50", "setting": "TK+ VZV strain", "result": 3.18, "unit": "µM"}
    ]}
  ]
}
